From patent US20240189343A1, “TREATMENT OF VIRUS INFECTIONS” (priority 2021, published 2024)

Tests used:
[1] = test system: DENV1 (strain Hawaii)
[2] = test system: ZIKV Asian lineage (PF/13)
[3] = test system: DENV2 (strain New Guinea C)
[4] = test system: ZIKV African lineage (Strain MP1751)
[5] = test system: DENV3 (strain H87)
[6] = test system: DENV4 (strain H241)

Substance: dextran sulfate
- SI (=TC50/EC50) [1]: >34
- SI (=TC50/EC50) [2]: >71
- SI (=TC50/EC50) [3]: >83
- SI (=TC50/EC50) [4]: >167
- SI (=TC50/EC50) [5]: >333
- SI (=TC50/EC50) [6]: >16
